Earlier results on one substance are cited in paper PMC8387964.

The data set addresses p67phox (Homo sapiens) (UniProt P19878).

Broadly, the Kd is the free concentration of one partner at which half of the binding sites on the other are occupied at equilibrium, for simple one-to-one binding. For Rac1 (from UniProt P63000), the Kd was 124 nM.
